The target of this assay is T1, Escherichia coli succinate:quinone oxidoreductase flavoprotein subunit SdhA (isolated subunit) (E. coli, UniProt P0AC41 1-588).
T1 construct: SdhA, flavoprotein subunit of E. coli succinate:quinone oxidoreductase (SdhABCD), isolated subunit; construct not described; also called SdhA subunit
T1 sequence (looked up): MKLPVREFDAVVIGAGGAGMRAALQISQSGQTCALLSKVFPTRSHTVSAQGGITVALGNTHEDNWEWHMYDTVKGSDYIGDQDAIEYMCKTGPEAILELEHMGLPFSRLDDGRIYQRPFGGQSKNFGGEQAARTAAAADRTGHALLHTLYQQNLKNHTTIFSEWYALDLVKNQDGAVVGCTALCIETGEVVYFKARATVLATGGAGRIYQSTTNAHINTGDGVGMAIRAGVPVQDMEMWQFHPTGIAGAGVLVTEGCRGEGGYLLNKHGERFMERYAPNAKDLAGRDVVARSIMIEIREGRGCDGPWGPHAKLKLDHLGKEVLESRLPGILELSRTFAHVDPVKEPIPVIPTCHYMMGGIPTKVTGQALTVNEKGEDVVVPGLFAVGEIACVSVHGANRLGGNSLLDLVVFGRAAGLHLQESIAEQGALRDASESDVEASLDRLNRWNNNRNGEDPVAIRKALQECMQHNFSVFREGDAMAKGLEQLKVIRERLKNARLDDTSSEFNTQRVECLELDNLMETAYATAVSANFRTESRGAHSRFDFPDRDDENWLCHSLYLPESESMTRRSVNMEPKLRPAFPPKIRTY
The experiment in a line: optical difference spectroscopy (FAD absorbance titration); isolated flavoprotein (7 to 9 µM) in the cuvette titrated with SdhE; 50 mM Bis-Tris-Propane pH 8.0, 25 °C; 387–458 nm; fit of absorbance change against total ligand concentration. As to conditions: both partners purified.

B1: Escherichia coli SdhE assembly factor (natural protein, E. coli)
chain: MDINNKARIHWACRRGMRELDISIMPFFEHEYDSLSDDEKRIFIRLLECDDPDLFNWLMNHGKPADAELEMMVRLIQTRNRERGPVAI
notes: SdhE, FAD assembly factor of E. coli Complex II, as used in optical titrations and kinetics; construct not described
The molecule B1 displayed a Kd of 1.5 ± 0.2 µM.

As usually defined, the Kd is the equilibrium constant for the complex coming apart. A lower Kd goes with higher affinity.

These data come from PMC5773532, “Crystal structure of an assembly intermediate of respiratory Complex II” (Nature Communications, 2018).
